{"source": "patent US20240165087A1", "about": "“APPLICATION OF RILUZOLE- AND BORNEOL-CONTAINING COMPOSITION IN PREPARATION OF MEDICATION FOR TREATING CEREBROVASCULAR DISEASES” (NEURODAWN PHARMACEUTICAL CO., LTD., priority 2021, published 2024)", "key": {"[1]": {"test_system": "release of glutamate", "conditions": "transient global cerebral ischemia in rodent; cited from earlier work"}, "[2]": {"test_system": "rat middle cerebral artery occlusion (MCAO) model", "conditions": "single intravenous injection, 4 mg/kg and 8 mg/kg, at 30 min after ischemia; cited from earlier work"}, "[3]": {"test_system": "MCAO rats", "assay": "Rat focal cerebral ischemia-reperfusion model (MCAO), neurological deficit score and cerebral infarction area", "conditions": "in vivo"}}, "note": "Several values for one entry are separate records, joined by “and”; a condition that tells them apart may be missing. Equal entries are not always repeated."}
{"smiles": "Nc1nc2ccc(OC(F)(F)F)cc2s1", "note": "[Riluzole, 2-Amino-6-trifluoromethoxybenzothiazole]", "values": [{"measurement": "ischemia-induced surge in release of glutamate", "setting": "[1]", "result": "completely inhibits"}, {"measurement": "cerebral infarction area", "setting": "[2]", "result": "significantly reduce"}, {"measurement": "neurological deficit score", "setting": "[2]", "result": "significantly reduce"}, {"measurement": "Fa, reducing the area of cerebral infarction in MCAO rats", "setting": "[3]", "result": "0.247 and 0.380"}, {"measurement": "cerebral infarction area vs MCAO model group", "setting": "[3]", "result": "dose-dependently, significantly reduced"}, {"measurement": "neurological deficit score of MCAO rats, dose dependence", "setting": "[3]; iv", "result": "dose-dependently reduce"}]}
